The data set in a line: Plasma radioactivity and plasma metabolites in cynomolgus monkey. The text has this:
Plasma radioactivity profiles have been monitored over time. […] In addition, metabolites occurring in plasma over time have been monitored (FIGS. 8 and 9) for both ligands.

Each structure is given as a SMILES string.

With `C#CCN(C)[C@H](C[18F])Cc1ccccc1` [[^18F]compound 13, N-[(2S)-1-(^18F)fluoro-3-phenylpropan-2-yl]-N-methylprop-2-yn-1-amine], under “178 MBq vs 155 MBq [^11C]Deprenyl, 30 and 45 min time points”, the “plasma radioactivity of mother compound relative to [^11C]Deprenyl” value is on record as “about double”. Also, the “metabolite b relative to that observed for [^11C]Deprenyl” value (plasma, 30 min time point) is reported as “one third”.

(Values after patent publication US20100233086A1, “COMPOUNDS FOR USE IN IMAGING, DIAGNOSING AND/OR TREATMENT OF DISEASES OF THE CENTRAL NERVOUS SYSTEM OR OF TUMORS” (priority 2007, published 2010).)
